The values that follow come from patent publication EP3536368B1, “DRY POWDER INHALER COMPRISING A SEROTONIN RECEPTOR AGONIST AND A DIKETOPIPERAZINE FOR TREATING MIGRAINES” (MannKind Corporation, priority 2010, dated 2012).

Each structure is given as a SMILES string.

This data set is described as follows: Pharmacokinetics of sumatriptan in rats (serum, LCMS). The following applies: rat, SC (subcutaneous injection).

With `CNS(=O)(=O)Cc1ccc2[nH]cc(CCN(C)C)c2c1` [Sumatriptan, sumatriptan], the tmax is 5 min.
